Results taken from patent publication US6350747B1, “3-(anilinomethylene) oxindoles” (Glaxo Wellcome Inc., priority 1999, dated 2002).

Biological target: T1, CDK2 (Homo sapiens, UniProt P24941)
T1 construct: made in house
Assay: CDK2 cyclin dependent protein kinase assay
Type: biochemical
Conditions: read-out: CDK2 kinase inhibition IC50
Description: Cyclin dependent protein kinase assays utilized the peptides Biotin-aminohexyl-[…] and Biotin-aminohexyl-[…]-NH2 as phosphoryl group acceptors. CDK1 and CDK2 were both expressed utilizing a baculovirus expression system and were partially purified to comprise 20-80% of total protein, with no detectable competing reactions present. Typically, assays were performed by incubating either enzyme (0.2-10 nM), with and without inhibitor, one of the two peptide substrates ([…]), [γ-^32P]ATP ([…]), and 10-20 mM Mg^2+ for periods of time generally within the range 10-120 min. Reactions were terminated with 0.2-2 volumes of either 20% acetic acid or 50-100 mM EDTA buffered to pH 7 (substrate consumption<20%). The buffer employed in enzyme assays was either 30 mM HEPES 7.4 containing 0.15 M NaCl and 5% DMSO, the buffer 50 mM MOPS 7.0 containing 0.15 M NaCl and 5% DMSO, or the buffer 100 mM HEPES pH 7.5 containing 0.1 mg/mL BSA and 5% DMSO. Inhibitors were diluted in 100% DMSO prior to addition into the assay. […]

IC50 | Structure (SMILES)
11 to 50 nM | CC(=O)N(C)c1ccc(N/C=C2\C(=O)Nc3ccc4ncsc4c32)cc1 [Example 58, N-Methyl-N-(4-{(Z)-[(7-oxo-6,7-dihydro-8H-[1,3]thiazolo[5,4-e]indol-8-ylidene)methyl]amino}phenyl)acetamide]
11 to 50 nM | CCC1(c2ccc(N/C=C3\C(=O)Nc4ccc5ncsc5c43)cc2)CCC(=O)NC1=O (centres unmarked) [Example 48, 3-Ethyl-3-(4-{(Z)-[(7-oxo-6,7dihydro-8H-[1,3]thiazolo[5,4-e]indol-8-ylidene)methyl]amino}phenyl)-2,6-piperidinedione]
